## Measured affinities in a library of Ab-14 heavy chain variants

Target peptide (SARS-CoV-2 spike, HR2 region): PDVDLGDISGINAS

Ab-14 is the parent antibody, in scFv form: VH, then three GGGGS repeats, then VL. The light chain is unchanged in all variants.
VH: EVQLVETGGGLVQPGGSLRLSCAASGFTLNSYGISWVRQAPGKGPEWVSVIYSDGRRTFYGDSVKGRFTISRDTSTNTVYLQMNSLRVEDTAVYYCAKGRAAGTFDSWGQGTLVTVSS
VL: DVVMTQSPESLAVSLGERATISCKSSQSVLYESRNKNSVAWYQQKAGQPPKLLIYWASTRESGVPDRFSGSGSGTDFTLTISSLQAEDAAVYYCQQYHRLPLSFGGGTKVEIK

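The parent was found by panning a naive human phage display library on the peptide. These sequences belong to a second round, designed from the earlier measurements on random variants of the parent. Their group label is 14H_En_Gen (En: ensemble of fine-tuned language models; Gen: genetic algorithm). The scFvs were displayed on barcoded MATa yeast, the peptide on MATalpha yeast. After mating in shaken culture at 30 °C for 16 h, diploids were selected and their barcode pairs sequenced. A regression on co-assayed BCL2-family reference pairs converts the normalised counts of each replicate to an apparent Kd. Each pool was mated in six replicate cultures.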

The parent's heavy chain CDRs are GFTLNSYGIS, VIYSDGRRTFYGDSVK, GRAAGTFDS; each variant's own CDRs replace them letter for letter. Affinities are written as log10 Kd with Kd in nM; a lower number is a better binder. Where no diploid with the target was found in that replicate, the entry reads "nd": below detection, most likely a poor binder, though not proof of it. The authors' rule: three or more of the six replicates give a measured affinity, fewer mean a poor binder.

| CDR-H1 | CDR-H2 | CDR-H3 | replicates, log10 nM | signal with controls |
|---|---|---|---|---|
| GFDLNEYGIS | VIYADGMRKAYADSVK | GENAGTFDV | -0.67 -0.95 -0.64 -0.84 -0.82 -0.75 | 0 of 18 |
| GFDLDEYGIS | VIYADGRRTAYADSVK | GGNAGTFDV | 0.17 -0.07 -0.31 -0.05 -0.29 0.12 | 0 of 18 |
| GFDLNEYGIS | VIYADGMRTAYTDSVK | GTNAGTFDI | -0.48 -0.35 -0.55 -0.65 -0.72 -0.46 | 0 of 18 |
| GFDLDEYGIS | VIYADGVRTAYTDSVK | GNVAGTFDL | -0.35 -0.54 -0.42 -0.33 -0.49 0.29 | 0 of 18 |
| GFDLDEYGIS | VIYADGKRTAYIDSVK | GNQAGTFDV | -0.42 -0.39 -0.61 -0.88 -0.45 -0.33 | 0 of 18 |
| GFDLNEYGIS | VIYADGVRTAYADSVK | GVNAGTFDI | 0.02 -0.16 -0.57 -0.48 -0.46 -0.37 | 0 of 18 |
| GFDLNEYGIS | VIYADGMRTAYADKVK | GEVAGTFDT | -0.36 -0.16 -0.18 -0.31 -0.42 0.10 | 0 of 18 |
| GFDLNEYGIS | VIYADGMRTAYSDSVK | GQTAGTFDV | -0.55 -0.64 -0.47 -0.63 -0.32 -0.72 | 0 of 18 |
| GFDLNEYGIS | VIYADGQRTAYSDSVK | GNVAGTFDM | -0.70 -0.27 -0.39 -0.49 -0.43 -0.20 | 0 of 18 |
| GFDLNEYGIS | VIYADGVRTYYADDVK | GNQAGTFDV | -0.15 -0.30 -0.66 -0.42 0.20 1.08 | 0 of 18 |
| GFDLNEYGIS | VIYADGKRTYYADSVK | GQNAGTFDV | -0.40 -0.60 -0.50 -0.76 -0.63 -0.46 | 0 of 18 |
| GFDLNEYGIS | VIYADGMRTAYADDVK | GEQAGTFDV | -0.06 -0.39 -0.61 -0.34 -0.40 -0.18 | 0 of 18 |
| GFDLNEYGIS | VIYADGSRTAYADSVK | GENAGTFDL | -0.57 -0.45 0.00 -0.42 0.29 -0.36 | 0 of 18 |
| GFDLNEYGIS | VIYADGMRTFYADSVK | GNTAGTFDM | -0.67 -0.45 -0.72 -0.93 -0.39 -0.45 | 0 of 18 |
| GFDLNEYGIS | VIYADGQRTAYADSVK | GNHAGTFDV | -0.23 -1.15 -0.48 -0.77 -0.77 -0.87 | 0 of 18 |
| GFDLNEYGIS | VIYADGSRTAYADNVK | GEVAGTFDQ | -0.53 -0.68 -0.27 -0.61 -0.50 -0.66 | 0 of 18 |
| GFDLDEYGIS | VIYADGMRTAYSDSVK | GQVAGTFDL | -0.77 -0.88 -0.88 -0.64 -0.64 -0.93 | 0 of 18 |
| GFDLNEYGIS | VIYADGMRTSYADSVK | GEVAGTFDL | 0.64 0.08 -0.62 -0.35 -0.12 -0.14 | 0 of 18 |
| GFDLNEYGIS | VIYADGRRTAYADSVK | GENAGTFVV | 1.54 1.76 1.45 1.50 2.05 1.97 | 0 of 18 |
| GFDLNEYGIS | VIYADGMRTVYADSVK | GNQAGTFDL | 1.52 0.71 0.89 1.07 0.61 1.09 | 0 of 18 |
| GFDLNEYGIS | VIYADGSRTAYADNVK | GENAGTFDV | -0.68 -0.49 -0.93 -0.38 -0.29 -0.69 | 0 of 18 |
| GFDLNEYGIS | VIYADGMRTAYADDVK | GNQAGTFDM | -0.37 0.25 -0.61 -0.88 -0.12 -0.47 | 0 of 18 |
| GFDLDEYGIS | VIYADGMRTYYADSVK | GENAGTFDT | -0.17 -0.11 0.01 -0.46 -0.30 -0.03 | 0 of 18 |
| GFDLNEYGIS | VIYADGMRTAYADSVK | GNNAGTFVL | nd nd nd nd nd nd | 0 of 18 |
| GFDLDEYGIS | VIYADGVRQAYADSVK | GENAGTFDV | 0.31 -0.15 0.11 -0.17 -0.07 0.20 | 0 of 18 |
| GFDLNEYGIS | VIYADGMRTFYADSVK | GNNAGTFDQ | 0.42 -0.15 -0.01 -0.61 -0.18 -0.08 | 0 of 18 |
| GFDLDEYGIS | VIYADGRRTAYADSVK | GETAGTFDL | -0.11 -0.37 0.07 -0.20 -0.35 -0.14 | 0 of 18 |
| GFDLNEYGIS | VIYADGMRKAYADDVK | GNEAGTFDV | -0.43 -0.17 -0.19 -0.49 -0.34 -0.15 | 1 of 18 (1.88) |
| GFDLDEYGIS | VIYADGKRTAYSDSVK | GQVAGTFDV | -0.28 0.08 -0.34 -0.44 -0.43 -0.10 | 0 of 18 |
| GFDLNEYGIS | VIYADGMRTAYADSVK | GNLAGTFDV | -0.96 -0.72 -0.99 -1.05 -1.02 -1.05 | 1 of 18 (2.14) |
| GFDLNEYGIS | VIYADGFRTAYADSVK | GENAGTFDV | -0.81 -0.49 -0.86 -0.86 -0.40 -0.54 | 1 of 18 (1.15) |
| GFDLNEYGIS | VIYADGQRTAYIDSVK | GNVAGTFDT | -0.16 0.03 -0.39 -0.35 -0.40 -0.44 | 0 of 18 |
| GFDLNEYGIS | VIYADGQRTFYADSVK | GEVAGTFDI | -1.80 nd -1.00 nd -1.77 -1.20 | 0 of 18 |
| GFDLNEYGIS | VIYADGQRTAYAESVK | GENAGTFDV | -0.09 -0.04 -0.51 -0.76 -0.68 -0.52 | 0 of 18 |
| GFNLDEYGIS | VIYADGKRTAYADSVK | GEVAGTFDL | -0.16 -0.47 -0.61 -0.32 -0.57 -0.35 | 0 of 18 |
| GFDLNEYGIS | VIYADGKRTVYADSVK | GENAGTFDI | 0.36 0.18 -0.65 -0.24 -0.18 -0.76 | 0 of 18 |
| GFDLNEYGIS | VIYADGMRTAYSDSVK | GENAGTFDV | -0.97 -0.22 0.22 -0.90 -1.32 -0.91 | 0 of 18 |

As a blank, each scFv also met three strains without target: over all heavy chain designs, 1% of these pairings were detected, typically at 2.08 and seldom below 0.84. For each scFv, signals with the empty controls are counted beside the result, with their mean in brackets. A sequence measured in both rounds can read differently, since the two assays cover different ranges. Of ten entries with the parent sequence, four were seen in most replicates (averages 0.34 to 2.37), three in one and three in none, so single entries are noisy.

Source: Li et al. 2023 (doi:10.1038/s41467-023-39022-2), MIT Lincoln Laboratory and A-Alpha Bio; data file from the FLAb repository.